Target: human MLL1 construct, amino acid residues 3745-3969 (MLL^3745) (human) (UniProt Q03164)

- reduction of the relative intensity of the Ash2L methylation band (fluorogram densitometry), MLL1 with WRA, with unmodified full-length histone H3 against no histone H3: 99%
- reduction of the relative intensity of the MLL1 automethylation band (fluorogram densitometry), MLL1 with WRA, with unmodified full-length histone H3 against no histone H3: 95%
Substance: full-length unmodified histone H3 protein (from UniProt P68431 1-136) (natural protein)

Reference: article PMC3887211, “Automethylation Activities within the Mixed Lineage Leukemia-1 (MLL1) Core Complex Reveal Evidence Supporting a “Two-active Site” Model for Multiple Histone H3 Lysine 4 Methylation” (The Journal of Biological Chemistry, 2013)
